Data published in ChEMBL document CHEMBL1144945, “Development of progesterone receptor antagonists from 1,2-dihydrochromeno[3,4-f]quinoline agonist pharmacophore” (Bioorg Med Chem Lett, 2003).

Molecular target: T1, Progesterone receptor (Homo sapiens, UniProt P06401)
T1 sequence (P06401 whole entry): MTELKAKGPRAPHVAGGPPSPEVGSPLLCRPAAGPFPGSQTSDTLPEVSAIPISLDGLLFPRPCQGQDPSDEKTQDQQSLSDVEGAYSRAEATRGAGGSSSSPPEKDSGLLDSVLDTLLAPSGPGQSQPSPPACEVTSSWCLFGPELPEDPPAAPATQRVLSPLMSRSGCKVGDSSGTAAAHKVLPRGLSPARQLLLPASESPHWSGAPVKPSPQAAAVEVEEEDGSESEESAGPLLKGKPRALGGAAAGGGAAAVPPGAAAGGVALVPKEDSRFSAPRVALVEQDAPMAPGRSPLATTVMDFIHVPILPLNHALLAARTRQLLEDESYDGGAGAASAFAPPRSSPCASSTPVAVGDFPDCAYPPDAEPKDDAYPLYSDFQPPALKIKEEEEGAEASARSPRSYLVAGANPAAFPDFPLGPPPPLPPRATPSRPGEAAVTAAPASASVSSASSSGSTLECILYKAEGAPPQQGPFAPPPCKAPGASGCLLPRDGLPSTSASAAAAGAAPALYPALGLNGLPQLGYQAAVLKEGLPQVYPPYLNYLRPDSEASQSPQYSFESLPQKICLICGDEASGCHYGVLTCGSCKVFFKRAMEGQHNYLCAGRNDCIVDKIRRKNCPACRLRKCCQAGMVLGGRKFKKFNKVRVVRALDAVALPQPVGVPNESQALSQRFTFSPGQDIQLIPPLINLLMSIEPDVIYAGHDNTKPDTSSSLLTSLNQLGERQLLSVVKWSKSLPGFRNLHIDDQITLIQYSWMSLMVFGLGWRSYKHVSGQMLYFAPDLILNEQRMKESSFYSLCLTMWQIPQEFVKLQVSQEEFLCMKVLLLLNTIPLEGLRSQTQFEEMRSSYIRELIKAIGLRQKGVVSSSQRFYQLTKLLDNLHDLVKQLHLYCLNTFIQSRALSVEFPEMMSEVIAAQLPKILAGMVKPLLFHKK
Test: Effective concentration for human progesterone receptor in T47D human breast cancer cell; not active (<20% efficacy and/or >10 mM potency)
Settings: cancer cell lines

In the case of CC#C[C@]1(O)CC[C@H]2[C@@H]3CCC4=CC(=O)CCC4=C3[C@@H](c3ccc(N(C)C)cc3)C[C@@]21C [MIFEPRISTONE], the EC50 is reported as “Not Active”.
